Target: T1, MAP/microtubule affinity-regulating kinase 4 (Homo sapiens) (UniProt Q96L34)
T1 sequence (whole entry): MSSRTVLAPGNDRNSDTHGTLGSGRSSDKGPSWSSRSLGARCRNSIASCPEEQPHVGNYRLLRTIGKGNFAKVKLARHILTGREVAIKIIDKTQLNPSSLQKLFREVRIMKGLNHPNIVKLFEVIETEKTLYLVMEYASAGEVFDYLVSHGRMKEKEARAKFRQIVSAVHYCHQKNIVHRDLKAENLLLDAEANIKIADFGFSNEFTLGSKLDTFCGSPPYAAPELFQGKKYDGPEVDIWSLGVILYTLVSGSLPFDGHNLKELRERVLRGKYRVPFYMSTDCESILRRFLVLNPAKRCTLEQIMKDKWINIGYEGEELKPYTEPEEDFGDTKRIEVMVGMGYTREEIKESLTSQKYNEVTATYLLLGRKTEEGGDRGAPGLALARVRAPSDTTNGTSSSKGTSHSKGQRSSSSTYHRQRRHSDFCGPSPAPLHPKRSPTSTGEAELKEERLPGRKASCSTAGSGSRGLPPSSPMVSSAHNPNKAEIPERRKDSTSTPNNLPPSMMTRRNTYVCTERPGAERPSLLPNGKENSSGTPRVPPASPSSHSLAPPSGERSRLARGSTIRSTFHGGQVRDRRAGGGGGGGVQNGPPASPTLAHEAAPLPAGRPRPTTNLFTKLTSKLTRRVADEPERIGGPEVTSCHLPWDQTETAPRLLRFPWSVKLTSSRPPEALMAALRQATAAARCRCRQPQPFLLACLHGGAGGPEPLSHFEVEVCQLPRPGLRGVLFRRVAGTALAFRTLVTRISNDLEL
Assay: Binding affinity to human MARK4 assessed as binding constant by fluorescence spectroscopy analysis

K: 0.79 10^5/M
SMILES: CN1c2ccccc2Sc2ccc(C(=O)c3c(-c4ccccc4)nc4ccccn34)cc21
